Shown are actives, neighbours in structure and some others; about 16% of the full set was active somewhere.
TDP1 cell noCPT: qHTS for Inhibitors of human tyrosyl-DNA phosphodiesterase 1 (TDP1): qHTS in cells in absence of CPT | DT40 Tdp1-/- hTDP1 cells, no CPT, ATP luminescence, 48 h | Potency, µM (titrated, usually from 46.2 µM), inactives show at the top dose activity change, negative = growth inhibition, usual class: inhibitors | actives 15% (n = 420,000); also: potency is read from the fitted curve at half-maximal effect; % is scaled to controls: 0 for no effect and ±100 for the full control effect; nearly all actives have a fitted effect of over 55% in size
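Stably hTDP1-transfected Tdp1-null chicken DT40 cells were treated with library compounds minus camptothecin and grown for at least 48 hr at 37 °C, after which cellular ATP was quantified by luminescence.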
DT40 TDP1 CPT: growth inhibition of DT40 Tdp1-/-;hTDP1 cells with camptothecin (screen for TDP1 inhibitors) | chicken DT40 Tdp1-/-;hTDP1 cells + 20 nM CPT, ATP luminescence, 48 h | Potency, µM (highest dose often 46.2 µM), for inactives: top-dose activity change, negative = growth inhibition, hits mostly inhibitors | actives 12% (n = 420,000); also: potency is read from the fitted curve at half-maximal effect; % is scaled to controls: 0 for no effect and ±100 for the full control effect; nearly all actives have a fitted effect of over 55% in size
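Cell growth measured by CellTiter-Glo luminescence after a minimum 48 h, 37 C compound exposure with 20 nM CPT in Tdp1-knockout DT40 cells stably expressing hTDP1, seeded 400/well; qHTS titration format.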
miR-21 reporter: miR-21 reporter, rising signal | 340,000 tested, under 10 active | AID 2288 | HeLa miR-21 FLuc reporter, luciferase, 48 h | Potency, µM (titrated, usually from 38.3 µM), for inactives: at the highest dose reporter change, positive = more light; active = well fitted rising curve with a large enough effect; inconclusive = small, poorly fitted or top-dose-only effect; inactive = no such curve, though single readings can be large or run the other way;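 further: % of control where 0% means no effect; miR-21 action dims this reporter so a rising signal means less miR-21 action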
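Compounds were titrated across several concentrations (up to approximately 40 uM) and incubated 48 hours with HeLa miR-21-FLuc reporter cells (miR-21 target sequence downstream of FLuc, endogenous miR-21). Readout was firefly luciferase luminescence after lytic detection reagent.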
uPA generation: blocks generation of uPA at the cell surface; cell surface uPA generation assay, qHTS; AID 540303; Potency, µM (top dose mostly 38.3 µM), without a hit: at the highest dose activity change, negative = inhibition, hits mostly inhibitors; actives 0.31% (n = 330,000); active = well fitted inhibition curve with a large enough effect; inconclusive = small, poorly fitted or top-dose-only effect; inactive = no such curve, though single readings can be large or run the other way; tested in mouse RAW 264.7 cells; also: potency is read from the fitted curve at half-maximal effect; % is scaled to controls: 0 for no effect and ±100 for the full control effect; nearly all actives have a fitted effect of over 55% in size
TDP1 inh: inhibitors of human tyrosyl-DNA phosphodiesterase TDP1. Q9NUW8. recombinant TDP1, AlphaScreen DNA substrate cleavage. Potency, µM (highest dose often 130 µM), inactives show at the top dose activity change, negative = inhibition, usual class: inhibitors. actives 0.28% (n = 350,000); also: potency is read from the fitted curve at half-maximal effect; % is scaled to controls: 0 for no effect and ±100 for the full control effect; nearly all actives have a fitted effect of over 40% in size
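Steps: enzyme plus compound, 15 min RT; add biotin/phosphotyrosine-FITC oligonucleotide (15 nM final), react 5 min; add donor/acceptor beads (10 ug/ml final), 10 min; read AlphaScreen. Tdp1 at 1 nM final.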
* hit, by the source's call; ? = inconclusive; . = not tested or not shown; [ ] = another dose, or the depositor's remark. Unless noted, calls follow the shape of the dose curve; as a rule, active = well fitted curve in the direction sought with a large enough effect; inconclusive = small, poorly fitted or top-dose-only effect, or another doubt; inactive = no such curve, though single readings can be large; an effect the other way counts as inactive or inconclusive.

Assay codes – A = TDP1 cell noCPT; B = DT40 TDP1 CPT; C = miR-21 reporter; D = uPA generation; E = TDP1 inh
N#C/C(=C/c1cccc(O)c1)C(=O)NCc1ccc(Cl)cc1
  A: 16.4µM*	B: ?	C: -0.2%	D: 0.7%	E: .
COc1ccc(CCC(=O)NCCS(=O)(=O)N2CCN(c3ccccc3)CC2)cc1
  A: ?	B: ?	C: .	D: 10.9%	E: -0.2%
Cc1ccc(NC(=O)CSc2ccc(-c3ccccn3)nn2)cc1
  A: ?	B: ?	C: -0.3%	D: -0.6%	E: 0.0%
O=C(CSc1n[nH]c(-c2ccccn2)n1)Nc1ccc(F)cc1
  A: 7.31µM*	B: ?	C: ?	D: -9.7%	E: 3.7%
O=C(CSc1n[nH]c(-c2ccccn2)n1)Nc1ccc(Cl)cc1
  A: 4.61µM*	B: 6.51µM*	C: ?	D: -17.3%	E: -4.5%[0.0935 µM]
Cc1ccc(NC(=O)CSc2n[nH]c(-c3ccccn3)n2)cc1
  A: -79.4%	B: 5.8µM*	C: ?	D: -16.5%	E: -0.1%
Cc1cccc(NC(=O)CSc2n[nH]c(-c3ccncc3)n2)c1C
  A: -29.2%	B: 11.6µM*	C: -10.3%	D: -3.0%	E: -10.0%
O=C(CSc1n[nH]c(-c2ccncc2)n1)Nc1ccc(F)cc1
  A: -19.7%	B: -5.2%	C: 6.7%	D: 3.3%	E: 5.2%
O=C(CSc1n[nH]c(-c2ccncc2)n1)Nc1ccccc1
  A: -7.7%	B: 2.3%	C: 1.4%	D: 0.3%	E: 9.2%
Nc1nnc(-c2ccc(Cl)cc2)o1
  A: 16.9%	B: -27.7%	C: -6.5%	D: -10.4%	E: -0.6%
COc1ccc(-c2nnc(SCc3ccc(C(=O)O)cc3)n2N)cc1
  A: -4.1%	B: -4.3%	C: -9.7%	D: 0.0%	E: 5.0%
CCOc1ccc2nc(SCc3ccccc3C#N)sc2c1
  A: ?	B: -4.1%	C: -58.6%	D: -4.3%	E: ?
Cc1ccc2nc(-c3ccc(C)s3)c(Nc3ccc4c(c3)OCCO4)n2c1
  A: ?	B: 23.1µM*	C: -56.8%	D: .	E: 4.7%
Cc1ccc(-c2nc3ccccn3c2Nc2ccc3c(c2)OCCO3)s1
  A: -4.7%	B: -15.2%	C: -62.2%	D: .	E: 10.0%
Cc1ccc2nc(-c3ccco3)c(Nc3ccc4c(c3)OCCO4)n2c1
  A: ?	B: 16.4µM*	C: -12.1%	D: .	E: 2.7%
Cc1ccccc1Nc1c(-c2ccc(Br)o2)nc2ccc(Cl)cn12
  A: ?	B: ?	C: 1.2%	D: .	E: 0.0%
Clc1ccc2nc(-c3ccc(Br)o3)c(Nc3ccc4c(c3)OCCO4)n2c1
  A: ?	B: 20.6µM*	C: -7.6%	D: .	E: 2.3%
CSc1ncnc2c1ncn2CCCN1CCN(C(=O)C2CC2)CC1
  A: ?	B: 6.3%	C: .	D: .	E: .
Nc1ccccc1SCC(=O)Nc1ccc(N2CCOCC2)cc1
  A: -24.0%	B: -8.6%	C: -4.5%	D: -4.7%	E: 4.8%
CCCCCc1ccc(-c2cn(CN3C(=O)c4ccccc4C3=O)nn2)cc1
  A: -4.0%	B: -2.2%	C: -2.9%	D: -3.4%	E: .
OC[C@@H]1CN(Cc2ccc3c(c2)OCO3)C[C@H](n2cnc3c(N4CCN(c5ccccc5)CC4)ncnc32)O1
  A: ?	B: 18.4µM*	C: .	D: .	E: .
OC[C@@H]1CN(Cc2cccnc2)C[C@H](n2cnc3c(N4CCN(c5ccccc5)CC4)ncnc32)O1
  A: 16.4µM*	B: ?	C: .	D: .	E: .
OC[C@@H]1CN(Cc2cccs2)C[C@H](n2cnc3c(N4CCN(c5ccccc5)CC4)ncnc32)O1
  A: ?	B: 23.1µM*	C: .	D: .	E: .
CNc1ncnc2c1ncn2[C@H]1CN(Cc2ccc3c(c2)OCO3)C[C@@H](CO)O1
  A: ?	B: 11.6µM*	C: .	D: .	E: .
OC[C@@H]1CN(Cc2ccc3c(c2)OCO3)C[C@H](n2cnc3c(N4CCOCC4)ncnc32)O1
  A: -7.1%	B: -14.9%	C: .	D: .	E: .

Laid out differently: results already given.
Each structure is followed by: TDP1 cell noCPT, DT40 TDP1 CPT, miR-21 reporter, uPA generation, TDP1 inh
CSc1ncnc2c1ncn2CCCN1CCN(C(=O)C2CC2)CC1
→ ?, 6.3%, ., ., .
CNc1ncnc2c1ncn2[C@H]1CN(Cc2ccc3c(c2)OCO3)C[C@@H](CO)O1
→ ?, 11.6µM*, ., ., .

Other structures:
Assay codes – A = TDP1 cell noCPT; B = DT40 TDP1 CPT; C = miR-21 reporter; D = uPA generation; E = TDP1 inh
CN(C)CCNc1ncnc2c1ncn2[C@H]1CN(Cc2ccc3c(c2)OCO3)C[C@@H](CO)O1
  A: -26.3%	B: -28.8%	C: .	D: .	E: .
OCCN1CCN(c2ncnc3c2ncn3[C@H]2CN(Cc3cccs3)C[C@@H](CO)O2)CC1
  A: -0.9%	B: ?	C: .	D: .	E: .
O=C(C(NS(=O)(=O)c1cccs1)c1ccccc1)N1CCN(c2ccccc2F)CC1 (stereo not given)
  A: ?	B: ?	C: 6.5%	D: -4.6%	E: 1.6%
Cc1cc(C)nc(N2CCC(C(=O)NCC3CCCCC3)CC2)n1
  A: -1.3%	B: -15.6%	C: -5.2%	D: 6.1%	E: 6.3%
CC(=O)OC[C@@H]1CN(Cc2ccccc2)C[C@H](n2cnc3c(N4CCN(c5ccccc5)CC4)ncnc32)O1
  A: 18.4µM*	B: 16.4µM*	C: .	D: .	E: .
CC(=O)OC[C@@H]1CN(Cc2ccccc2)C[C@H](n2cnc3c(NC(C)C)ncnc32)O1
  A: ?	B: -8.6%	C: .	D: .	E: .
CCN(CC)S(=O)(=O)c1ccc(N/N=C(\C)c2ccncc2)c([N+](=O)[O-])c1
  A: ?	B: 1.0%	C: -2.7%	D: -2.7%	E: .
COc1cc(NC(=O)CSc2nc3c(C)ccc(C)c3cc2C)c(C(=O)O)cc1OC
  A: 0.366µM*	B: -6.9%	C: -1.9%	D: 4.6%	E: 5.4%
COc1cc(CNCCSc2nnnn2C)ccc1OCc1ccccc1
  A: ?	B: ?	C: -33.2%	D: .	E: 4.5%
Cn1nnnc1SCCNCc1ccccc1OCc1ccc(Cl)cc1Cl
  A: 9.2µM*	B: 18.4µM*	C: 17.6%	D: .	E: 4.5%
CCOc1cc(CNCCSc2nnnn2C)ccc1OCc1ccc(Cl)cc1Cl
  A: 25.9µM*	B: 25.9µM*	C: 20.5%	D: .	E: 1.9%
CCSc1cc(Cl)nc(N)n1
  A: 2.0%	B: -1.1%	C: -0.4%	D: -3.4%	E: 4.1%
Cc1ccc(/C=N/NC(=O)c2nnn(-c3nonc3N)c2-c2cccs2)cc1
  A: ?	B: ?	C: 13.3%	D: -2.2%	E: 5.6%
CC(=O)Nc1ccc(S(=O)(=O)N(Cc2ccccc2)Cc2ccccc2)cc1
  A: 16.4µM*	B: ?	C: 8.6%	D: .	E: 5.7%[2.28 µM]
Cc1ccc(S(=O)(=O)N(Cc2cccnc2)Cc2cc3ccccc3[nH]c2=O)cc1
  A: ?	B: ?	C: 5.2%	D: -2.8%	E: .
CC(=O)Nc1ccc(S(=O)(=O)N(C)Cc2cnn(C)c2)cc1
  A: 16.4µM*	B: -29.4%	C: 2.3%	D: 2.6%	E: 2.6%
Cc1ccc(S(=O)(=O)N(CC(=O)O)Cc2ccccc2)cc1
  A: -9.8%	B: -20.3%	C: -3.4%	D: .	E: 5.7%
Cc1ccc(S(=O)(=O)N(Cc2ccccc2)C(C)C)cc1
  A: 18.4µM*	B: 18.4µM*	C: 6.7%	D: ?	E: .
CC(=O)Nc1ccc(S(=O)(=O)N(C)Cc2ccccc2)cc1
  A: 2.6%	B: -1.7%	C: -5.6%	D: 5.7%	E: 2.6%
CC(=O)Nc1ccc(S(=O)(=O)N(Cc2cccnc2)Cc2cc3ccc(C)cc3[nH]c2=O)cc1
  A: 14.6µM*	B: ?	C: 10.0%	D: -1.5%	E: 3.5%
CCN(CC)CCNC(=O)c1ccc(NC(=O)c2cccc(S(=O)(=O)N(C)C3CCCCC3)c2)cc1
  A: -3.2%	B: ?	C: .	D: ?	E: .
Cc1ccc(C(=O)N2CCC(C(=O)NCc3ccco3)CC2)cc1
  A: -15.1%	B: -12.9%	C: 1.3%	D: 1.2%	E: .
CC(=O)Nc1ccc(S(=O)(=O)N(Cc2ccccc2)C(C)C)cc1
  A: 20.6µM*	B: 16.4µM*	C: 7.3%	D: -8.5%	E: 5.9%
CC(C)N(Cc1ccccc1)S(=O)(=O)c1cccs1
  A: 25.9µM*	B: -27.5%	C: -4.6%	D: -26.1%	E: .
O=S(=O)(NCc1ccccc1)c1cccs1
  A: -43.0%	B: 0.082µM*	C: -3.9%	D: -7.7%	E: 0.7%
CCOC(=O)CN(Cc1ccccc1)S(=O)(=O)c1ccc(NC(C)=O)cc1
  A: -20.8%	B: -29.4%	C: -4.0%	D: .	E: -0.9%
O=S(=O)(NCCc1ccccc1)c1cccs1
  A: -18.1%	B: -11.5%	C: -5.7%	D: 2.0%	E: 8.5%

One compound at a time, from the list above:
CCOc1cc(CNCCSc2nnnn2C)ccc1OCc1ccc(Cl)cc1Cl as listed: TDP1 cell noCPT = 25.9µM*; DT40 TDP1 CPT = 25.9µM*; miR-21 reporter = 20.5%; uPA generation = .; TDP1 inh = 1.9%
Cc1ccc(/C=N/NC(=O)c2nnn(-c3nonc3N)c2-c2cccs2)cc1 as listed: TDP1 cell noCPT = ?; DT40 TDP1 CPT = ?; miR-21 reporter = 13.3%; uPA generation = -2.2%; TDP1 inh = 5.6%

Screening results (PubChem)
